Key:
[1] = target: 11β-hydroxylase (CYP11B1) (Homo sapiens, UniProt P15538); assay: Assay of human CYP11B1 inhibition (selectivity CYP11B2/CYP11B1); details: G402-derived stable cell lines overexpressing human CYP11B1 / CYP11B2; CYP11B1: substrate 11-deoxycortisol, cortisol by HTRF
Method: Experimental reagents and instruments: Cortisol kit (Cisbio, Cat#62ALDPEG); Envision plate reader (PerkinElmer)
Experimental principle and method: In humans, 11β-hydroxylase (CYP11B1) is the key enzyme responsible for the biosynthesis of cortisol. In this experiment, a G402-derived stable cell line overexpressing human CYP11B1 was established in vitro. The cells were incubated with using 11-deoxycortisol as the substrate, and the test compound was added simultaneously. After co-incubation, the supernatant was collected, and cortisol levels in the supernatant were then measured by HTRF assay, and the inhibitory effect of the compound on 11β-hydroxylase (CYP11B1) was calculated.
Experimental steps: 11-Deoxycortisol was added to the wells of a plate pre-seeded with the cells (10,000 cells/well) 24h prior to assay initiation. […] Finally, the fluorescence signal ratio at 665 nm/615 nm was measured using an Envision plate reader (PerkinElmer).
Experimental data processing method: Test data were processed and analysed using GraphPad Prism 5 software. First, the mean reaction signal values of the high-signal control wells and low-signal control wells were calculated separately. […] The inhibition rate-concentration curve was fitted using the "log(inhibitor) vs. response - Variable slope" method in the software, and the IC50 value of the compound was calculated.

By UniProt entry, the sequences of proteins in these tests, tags left out. Residues count along the entry.
UniProt P15538, 25-503 limits assumed: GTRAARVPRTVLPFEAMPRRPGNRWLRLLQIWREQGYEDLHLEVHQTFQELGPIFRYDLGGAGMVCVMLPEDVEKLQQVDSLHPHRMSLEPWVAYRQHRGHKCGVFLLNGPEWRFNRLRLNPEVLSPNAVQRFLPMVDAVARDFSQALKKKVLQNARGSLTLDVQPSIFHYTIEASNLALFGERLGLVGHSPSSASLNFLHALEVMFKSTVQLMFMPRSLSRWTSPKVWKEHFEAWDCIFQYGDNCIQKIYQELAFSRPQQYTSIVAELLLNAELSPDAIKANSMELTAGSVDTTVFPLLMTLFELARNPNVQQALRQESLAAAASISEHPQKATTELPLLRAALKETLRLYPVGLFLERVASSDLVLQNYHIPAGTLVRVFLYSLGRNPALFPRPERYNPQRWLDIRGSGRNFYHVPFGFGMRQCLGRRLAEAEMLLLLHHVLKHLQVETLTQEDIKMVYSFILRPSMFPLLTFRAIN
UniProt P19099, 25-503 limits assumed: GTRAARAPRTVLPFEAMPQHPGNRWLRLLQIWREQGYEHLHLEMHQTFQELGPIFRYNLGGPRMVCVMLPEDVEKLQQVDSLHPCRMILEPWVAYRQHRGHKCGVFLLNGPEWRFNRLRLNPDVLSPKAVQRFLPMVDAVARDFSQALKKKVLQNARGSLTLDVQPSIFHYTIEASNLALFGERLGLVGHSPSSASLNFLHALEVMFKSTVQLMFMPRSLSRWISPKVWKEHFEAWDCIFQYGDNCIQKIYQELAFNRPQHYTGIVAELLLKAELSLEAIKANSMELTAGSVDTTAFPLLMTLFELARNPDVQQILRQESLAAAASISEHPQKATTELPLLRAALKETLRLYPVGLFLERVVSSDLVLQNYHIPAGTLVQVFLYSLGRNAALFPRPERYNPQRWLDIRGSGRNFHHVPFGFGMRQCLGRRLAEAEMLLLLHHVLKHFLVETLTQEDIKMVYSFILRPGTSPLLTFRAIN

[2] = target: human aldosterone synthase (CYP11B2) (Homo sapiens, UniProt P19099); assay: Assay of human aldosterone synthase (CYP11B2) inhibition; details: G402 cell line stably overexpressing human CYP11B2; substrate 11-deoxycorticosterone (11-DOC); 24 h incubation; aldosterone in supernatant by HTRF
Description: Experimental reagents and instruments: Aldosterone kit (Cisbio, Cat#64ALDPEG); Envision plate reader (PerkinElmer).
Experimental principle and method: In humans, aldosterone synthase (CYP11B2) catalyses the conversion of 11-deoxycorticosterone (11-DOC) to aldosterone through a series of metabolic processes. In this experiment, a G402 cell line stably overexpressing-Human CYP11B2 was established in vitro (according to Valentin-Goyco J, et al. Selectivity of osilodrostat as an inhibitor of human steroidogenic cytochromes P450. J Steroid Biochem Mol Biol. 2023, 231:106316). The cells were incubated with 11-deoxycorticosterone (11-DOC) as the substrate, the test compound was added simultaneously. After co-incubation, the supernatant was collected, and aldosterone levels in the supernatant were then measured by HTRF assay. The inhibitory effect of the compound on aldosterone synthase (CYP11B2) was calculated based on aldosterone concentration.
Experimental steps: 11-Deoxycorticosterone (11-DOC) was added to the wells of a plate pre-seeded with the cells (10,000 cells/well) 24h prior to assay initiation. […] Finally, the fluorescence signal ratio at 665 nm/615 nm was measured using an Envision plate reader (PerkinElmer).
Experimental data processing method: Test data were processed and analysed using GraphPad Prism 5 software. […]

[3] = Concurrent pharmacokinetic study in cynomolgus monkeys (ACTH challenge model); details: Oral: 1 mg/kg, single dose, ACTH i.m. 1 h after dosing, plasma
Method: Experimental animals: healthy, adult male non-naive cynomolgus monkeys, aged 40-65 months.
Formulation preparation: 5% DMSO + 10% Solutol + 85% Saline (1/2/17, V/V/V). A pre-weighed quantity of the test compound was weighed and transferred to a centrifuge tube, followed by the addition of a predetermined volume of DMSO. The mixture was vortexed until a clear solution was obtained. Solutol was then added, followed by vortexing to mix thoroughly. Subsequently, physiological saline was incorporated, and the mixture was vortexed thoroughly to obtain a clear solution.
Animal model: After a 7-day acclimation period, animals received a single intramuscular injection of ACTH (ACTH challenge model). Plasma samples were collected before administration and 1 h post-injection for PD biomarker measurement.
Grouping and administration: • (1) administration route: oral (p.o.) administration; administration dose: 1 mg/kg; administration volume: 5 mL/kg; administration frequency: single dose on the day. • (2) ACTH injection method: intramuscular injection; injection time: 1 h after oral (p.o.) administration; dose: 14.5 ug/kg; injection volume: 0.1 ml/kg.
Sample collection and processing: Blood samples were collected before p.o. administration and at 15 min, 30 min, 1 h, 2 h, 4 h, 6 h, 8 h, and 24 h after p.o. administration. Approximately 0.3 mL of blood was collected from the limb veins into EDTA-K2 tubes, gently mixed by shaking, and placed in an ice-water bath. Plasma was separated by centrifugation at 2,000 × g for 10 minutes at 4°C within 30 minutes of collection. The plasma samples were stored in a refrigerator at -80°C until analysis, and the separated plasma was frozen in a refrigerator until further analysis. During sample processing, all operations were performed in an ice-water bath.
Data analysis method: Pharmacokinetic parameters after oral administration to cynomolgus monkeys were calculated using Phoenix WinNonlin software with a non-compartmental model. […]

Ratio of CYP11B1 IC50 to CYP11B2 IC50 [1]: B (500 ≥ B > 200)
IC50 [2]: < 3 nM
AUClast [3]: 4848.33 ± 77.23 ng·h/mL
Cmax [3]: 1250 ± 98.99 ng/mL
Tmax [3]: 2.00 h
SMILES: [2H]C([2H])([2H])N1C(=O)CCc2cc(-c3cncc(N4CCN(C([2H])([2H])C(=O)NC(C)C)CC4)c3)ccc21
